The list shows a part of the results, in another mix than the full data. Results filed as inconclusive are left out. The source made the active and inactive calls. The call rests on the fitted dose curve; in most records, active means well fitted activation curve with a large enough effect; inconclusive means small, poorly fitted or top-dose-only effect; inactive means no such curve, though single readings can be large or run the other way.

The nature of the assay: qHTS of TDP-43 Inhibitors: NCGC Sytravon Library Screen. Further: 0% is about no effect; nearly all actives have a fitted effect of over 55% in size. The note with it: yeast TDP-43 toxicity rescue, BacTiter-Glo growth, 24 h; at 46.1 µM (top of the series). An excerpt:
The goal of this project is to identify new chemical probes capable of reversing the toxicity associated with TDP-43 which is associated with frontotemporal lobar degeneration and amyotrophic lateral sclerosis. These compounds will provide a complementary approach to deciphering the tangled mechanisms of toxicity and protection that we have uncovered through genome-wide genetic screens and are beginning to uncover in a large-scale proteomics analysis with mass spectroscopy. To this end, a miniaturized assay was developed to be screened against the Molecular Libraries Small Molecule Repository (MLSMR) to discover TDP-43 inhibitors. Please note that in the set-up this yeast-based assay compounds that inhibit as TDP-43, have a read-out as activators. NIH Chemical Genomics Center [NCGC] NIH Molecular Libraries Probe Centers Network [MLPCN] Assay Submitter (PI): Susan Lindquist, Whitehead Institute/MIT MLPCN Grant: R21 NS060957
Dispense 2.5 microL yeast galactose medium per 1536-well plate, pin compound, dispense 2.5 microL TDP-43 expressing yeast in galactose medium at OD600=0.02 (pregrown in raffinose medium to mid-log phase) per well, incubate for 24 hr at 30 deg C, and cell growth will be measured using 5 microL of Bactiter/Glo reagent to entire plate and read using Luminescence Protocol in ViewLux.
For orientation: qHTS replaces the single test concentration by a dilution series.
For the compound `CCN1CCC(Nc2cccc(F)c2)CC1`, the growth rescue (activation) was inactive: 9.92%.
Regarding `CCCOc1ccc(C(=O)NCC2(N(C)C)CCCCC2)cc1OC`, the growth rescue (activation) was inactive: -0.389%.
Next, `COc1cc(C(=O)NCC2(N3CCCCC3)CCCCC2)ccc1OC(F)F`: inactive: 12.2%; `CCCCOc1ccc(C(=O)NCC2(N3CCOCC3)CCCCC2)cc1`: inactive: 7.43%.
Next, `O=C(NCC1(N2CCCCC2)CCCCC1)c1ccc(F)cc1`: inactive: 1.91%; `COc1cc(C(=O)NCC2(N(C)C)CCCCC2)ccc1OC(F)F`: inactive: -29.6%; `COc1ccc(C(=O)NCC2(N3CCCCC3)CCCCC2)c(OC)c1OC`: inactive: 0.47%.

The values above are taken from PubChem BioAssay AID1347073 (National Center for Advancing Translational Sciences (NCATS), 2019).
